Measured values published in US4755522A, “Derivatives of N-[3-(2,4,6-trimethoxybenzoyl)propyl]piperidine, and their use in therapeutics” (priority 1986, dated 1988).
Where two headings read alike, the source gives them in different places.

Tested on: mice
Assay type: in vivo

SMILES: COc1cc(OC)c(C(=O)CCCN2CCCC(CO)C2)c(OC)c1.Cl (stereo not shown) [CRL 41,391, N-[3-(2,4,6-trimethoxybenzoyl)propyl]-3-piperidinemethanol hydrochloride]
- Mortality/6 mice (195 mg/kg I.P.): 0
- Mortality/6 mice (232.5 mg/kg I.P.): 3
- convulsions (232.5 mg/kg I.P. (footnote *)): convulsions
- Mortality/6 mice (260 mg/kg I.P.): 5
